# How the values were obtained:
# [1] = target: T1, Nitric oxide synthase (neuronal, human recombinant) nNOS (Homo sapiens, UniProt P29475); experiment: nNOS (human) enzyme assay, [3H]-L-arginine to L-citrulline; assay type: biochemical; conditions: Table 15
# T1 construct: purchased Axxora LLC ALX-201-068
# [2] = target: T2, Nitric oxide synthase (endothelial, human recombinant) eNOS (Homo sapiens, UniProt P29474); experiment: eNOS (human) enzyme assay, [3H]-L-arginine to L-citrulline; assay type: biochemical; conditions: Table 15
# T2 construct: purchased Axxora LLC ALX-201-070
structure (smiles),measurement,setting,value
"CCNC1CCCC(c2c[nH]c3ccc(NC(=N)c4cccs4)cc23)C1 (single isomer, unassigned) [Compound 22, N-(3-(3-(ethylamino)cyclohexyl)-1H-indol-5-yl)thiophene-2-carboximidamide]",IC50,[1],0.264 µM
same,IC50,[2],10.8 µM
"CCNC1CCCC(c2c[nH]c3ccc(NC(=N)c4cccs4)cc23)C1 (single isomer, unassigned) [Compound 23, N-(3-(3-(ethylamino)cyclohexyl)-1H-indol-5-yl)thiophene-2-carboximidamide]",IC50,[1],0.735 µM
same,IC50,[2],31.8 µM
